# In patent publication US20250230193A1, “CYCLIC COMPOUND HAVING SELECTIVE KRAS INHIBITORY EFFECT ON HRAS AND NRAS” (CHUGAI SEIYAKU KABUSHIKI KAISHA, priority 2022, published 2025):
# Protein sequences, listed by entry. Tags and fused reporters are not part of them.
# UniProt P01112, whole entry: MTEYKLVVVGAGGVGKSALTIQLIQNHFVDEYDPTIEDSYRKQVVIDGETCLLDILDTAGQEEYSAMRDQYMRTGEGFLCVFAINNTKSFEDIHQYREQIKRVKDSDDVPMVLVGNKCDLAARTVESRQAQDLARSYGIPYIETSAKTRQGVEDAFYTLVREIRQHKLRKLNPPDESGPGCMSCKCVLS
# UniProt P01111, whole entry: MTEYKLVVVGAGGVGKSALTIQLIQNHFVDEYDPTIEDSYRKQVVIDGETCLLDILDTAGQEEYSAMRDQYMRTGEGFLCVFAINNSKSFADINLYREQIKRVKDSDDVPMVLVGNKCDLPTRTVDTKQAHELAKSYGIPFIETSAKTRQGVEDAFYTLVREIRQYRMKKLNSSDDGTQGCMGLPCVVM
# How the values were obtained:
# [1] = molecular target: GDP-bound HRAS wild-type protein (Homo sapiens, UniProt P01112); assay: Binding to HRAS by surface plasmon resonance (SPR), Single Cycle Kinetics; details: KD ratio class
# [2] = molecular target: GDP-bound NRAS wild-type protein (Homo sapiens, UniProt P01111); assay: Binding to NRAS by surface plasmon resonance (SPR), Single Cycle Kinetics; details: KD ratio class
Structure (SMILES),HRAS/KRAS (ratio of KD value for GDP-bound HRAS wild-type protein to KD value for KRAS) [1],NRAS/KRAS (ratio of KD value for GDP-bound NRAS wild-type protein to KD value for KRAS) [2]
CCO[C@@H]1C[C@H]2C(=O)NC3(CCC3)C(=O)N(C)[C@@H](C(CC)CC)C(=O)N(C)[C@H](C(=O)N(C)C)CC(=O)N(C)[C@@H](CC3CCCC3)C(=O)N[C@@H]([C@@H](C)CC)C(=O)N(C)CC(=O)N(C)[C@H]3C/C=C\CCN(C3=O)[C@@H](Cc3ccc(C(F)(F)F)cc3)C(=O)N(C)CC(=O)N[C@@H](CCc3ccc4sccc4c3)C(=O)N2C1,A (a compound having 10 or more and less than 20 is denoted as A),AA (a compound having 20 or more is denoted as AA)
CCO[C@@H]1C[C@H]2C(=O)NC3(CCC3)C(=O)N(C)[C@@H](C3CCCC3)C(=O)N(C)[C@H](C(=O)N3CCCC3)CC(=O)N(C)[C@@H](C)C(=O)N[C@@H]([C@@H](C)CC)C(=O)N(C)CC(=O)N(C)[C@H]3C/C=C\CCN(C3=O)[C@@H](Cc3ccc(C(F)(F)F)cc3)C(=O)N(C)CC(=O)N[C@@H](CCc3cc(F)c(C(F)(F)F)c(F)c3)C(=O)N2C1,A (a compound having 10 or more and less than 20 is denoted as A),AA (a compound having 20 or more is denoted as AA)
CC[C@H](C)[C@@H]1NC(=O)[C@H](CC2CC2)N(C)C(=O)C[C@@H](C(=O)N2CCCC2)N(C)C(=O)[C@H](C2CCCC2)N(C)C(=O)C2(CCC2)NC(=O)[C@@H]2CC(F)(F)CN2C(=O)[C@H](CCc2cc(F)c(C(F)(F)F)c(F)c2)NC(=O)CN(C)C(=O)[C@H](Cc2ccc(C(F)(F)F)cc2)N2CC/C=C\C[C@@H](C2=O)N(C)C(=O)CN(C)C1=O,A (a compound having 10 or more and less than 20 is denoted as A),AA (a compound having 20 or more is denoted as AA)
CC[C@H](C)[C@@H]1NC(=O)[C@H](CC(C)C)N(C)C(=O)C[C@@H](C(=O)N(C)C)N(C)C(=O)[C@H](C2CCCC2)N(C)C(=O)C2(CCC2)NC(=O)[C@@H]2CCCN2C(=O)[C@H](CCc2cc(F)c(C(F)(F)F)c(F)c2)NC(=O)CN(C)C(=O)[C@H](Cc2ccc(C(F)(F)F)cc2)N2CC/C=C\C[C@@H](C2=O)N(C)C(=O)CN(C)C1=O,A (a compound having 10 or more and less than 20 is denoted as A),A (a compound having 10 or more and less than 20 is denoted as A)
C=CC[C@H]1C(=O)N[C@@H]([C@@H](C)CC)C(=O)N(C)CC(=O)N(C)[C@H]2C/C=C\CCN(C2=O)[C@@H](CC2CCCCC2)C(=O)N(C)CC(=O)N[C@@H](CCc2cc(F)c(C(F)(F)F)c(F)c2)C(=O)N2C[C@H](OCC)C[C@H]2C(=O)NC2(CCC2)C(=O)N(C)[C@@H](C2CCCC2)C(=O)N(C)[C@H](C(=O)N(C)C)CC(=O)N1C,A (a compound having 10 or more and less than 20 is denoted as A),A (a compound having 10 or more and less than 20 is denoted as A)
CCO[C@@H]1C[C@H]2C(=O)NC3(CCC3)C(=O)N(C)[C@@H](C3CCCC3)C(=O)N(C)[C@H](C(=O)N(C)C)CC(=O)N(C)[C@@H](CC3CCCC3)C(=O)N[C@@H]([C@@H](C)CC)C(=O)N(C)CC(=O)N(C)[C@H]3C/C=C\CCN(C3=O)[C@@H](CC3CCCCC3)C(=O)N(C)CC(=O)N[C@@H](CCc3cc(F)c(C(F)(F)F)c(F)c3)C(=O)N2C1,A (a compound having 10 or more and less than 20 is denoted as A),A (a compound having 10 or more and less than 20 is denoted as A)
CC[C@H](C)[C@@H]1NC(=O)[C@H](CC)N(C)C(=O)C[C@@H](C(=O)N(C)C)N(C)C(=O)[C@H](C2CCCC2)N(C)C(=O)C2(CCCC2)NC(=O)[C@@H]2CCCN2C(=O)[C@H](CCc2cc(F)c(C(F)(F)F)c(F)c2)NC(=O)CN(C)C(=O)[C@H](Cc2ccc(C(F)(F)F)cc2)N2CC/C=C\C[C@@H](C2=O)N(C)C(=O)CN(C)C1=O,B (a compound having 3 or more and less than 10 is denoted as B),A (a compound having 10 or more and less than 20 is denoted as A)
CC[C@H](C)[C@@H]1NC(=O)[C@H](CC2CC2)N(C)C(=O)C[C@@H](C(=O)N(C)C)N(C)C(=O)[C@H](C2CCCC2)N(C)C(=O)C2(CCC2)NC(=O)[C@@H]2CC(F)(F)CN2C(=O)[C@H](CCc2cc(F)c(C(F)(F)F)c(F)c2)NC(=O)CN(C)C(=O)[C@H](Cc2ccc(C(F)(F)F)cc2)N2CC/C=C\C[C@@H](C2=O)N(C)C(=O)CN(C)C1=O,A (a compound having 10 or more and less than 20 is denoted as A),A (a compound having 10 or more and less than 20 is denoted as A)
CC[C@H](C)[C@@H]1NC(=O)[C@H](CC(C)C)N(C)C(=O)C[C@@H](C(=O)N2CCOCC2)N(C)C(=O)[C@H](C2CCCC2)N(C)C(=O)C2(CCC2)NC(=O)[C@@H]2CCCN2C(=O)[C@H](CCc2ccc(C(F)(F)F)c(Cl)c2)NC(=O)CN(C)C(=O)[C@H](Cc2ccc(C(F)(F)F)cc2)N2C[C@H](C)CC[C@@H](C2=O)N(C)C(=O)[C@@H]2CCN2C1=O,B (a compound having 3 or more and less than 10 is denoted as B),A (a compound having 10 or more and less than 20 is denoted as A)
CCO[C@@H]1C[C@H]2C(=O)NC3(CCC3)C(=O)N(C)[C@@H](C3CCCC3)C(=O)N(C)[C@H](C(=O)N3CCCC3)CC(=O)N(C)[C@@H](CC(F)F)C(=O)N[C@@H]([C@@H](C)CC)C(=O)N(C)CC(=O)N(C)[C@H]3C/C=C\CCN(C3=O)[C@@H](Cc3ccc(C(F)(F)F)cc3)C(=O)N(C)CC(=O)N[C@@H](CCc3cc(F)c(C(F)(F)F)c(F)c3)C(=O)N2C1,A (a compound having 10 or more and less than 20 is denoted as A),AA (a compound having 20 or more is denoted as AA)
CC[C@H](C)[C@@H]1NC(=O)[C@H](CC2CC2)N(C)C(=O)C[C@@H](C(=O)N(C)C)N(C)C(=O)[C@H](C2CCCC2)N(C)C(=O)C2(CCC2)NC(=O)[C@@H]2C[C@H](C)CN2C(=O)[C@H](CCc2cc(F)c(C(F)(F)F)c(F)c2)NC(=O)CN(C)C(=O)[C@H](Cc2ccc(C(F)(F)F)cc2)N2CC/C=C\C[C@@H](C2=O)N(C)C(=O)CN(C)C1=O,B (a compound having 3 or more and less than 10 is denoted as B),A (a compound having 10 or more and less than 20 is denoted as A)
CCO[C@@H]1C[C@H]2C(=O)NC3(CCC3)C(=O)N(C)[C@@H](C3CCCC3)C(=O)N(C)[C@H](C(=O)N3CCCC3)CC(=O)N(C)[C@@H](CC3CCC3)C(=O)N[C@@H]([C@@H](C)CC)C(=O)N(C)CC(=O)N(C)[C@H]3C/C=C\CCN(C3=O)[C@@H](Cc3ccc(C(F)(F)F)cc3)C(=O)N(C)CC(=O)N[C@@H](CCc3cc(F)c(C(F)(F)F)c(F)c3)C(=O)N2C1,A (a compound having 10 or more and less than 20 is denoted as A),AA (a compound having 20 or more is denoted as AA)
CCO[C@@H]1C[C@H]2C(=O)NC3(COC3)C(=O)N(C)[C@@H](C3CCCC3)C(=O)N(C)[C@H](C(=O)N(C)C)CC(=O)N(C)[C@@H](CC)C(=O)N[C@@H]([C@@H](C)CC)C(=O)N(C)CC(=O)N(C)[C@H]3C/C=C\CCN(C3=O)[C@@H](Cc3ccc(C(F)(F)F)cc3)C(=O)N(C)CC(=O)N[C@@H](CCc3cc(F)c(C(F)(F)F)c(F)c3)C(=O)N2C1,B (a compound having 3 or more and less than 10 is denoted as B),A (a compound having 10 or more and less than 20 is denoted as A)
CCO[C@@H]1C[C@H]2C(=O)NC3(CCC3)C(=O)N(C)[C@@H](C3CCCC3)C(=O)N(C)[C@H](C(=O)N(C)C)CC(=O)N(C)[C@@H](CC(C)C)C(=O)N[C@@H]([C@@H](C)CC)C(=O)N(C)CC(=O)N(C)[C@H]3C/C=C\CCN(C3=O)[C@@H](CC3CCCCC3)C(=O)N(C)CC(=O)N[C@@H](CCc3cc(F)c(C(F)(F)F)c(F)c3)C(=O)N2C1,A (a compound having 10 or more and less than 20 is denoted as A),A (a compound having 10 or more and less than 20 is denoted as A)
CCC[C@H]1C(=O)N[C@@H]([C@@H](C)CC)C(=O)N(C)CC(=O)N(C)[C@H]2C/C=C\CCN(C2=O)[C@@H](Cc2ccc(C(F)(F)F)cc2)C(=O)N(C)CC(=O)N[C@@H](CCc2ccc(C(F)(F)F)c(OC)c2)C(=O)N2C[C@H](OCC)C[C@H]2C(=O)NC2(CCC2)C(=O)N(C)[C@@H](C2CCCC2)C(=O)N(C)[C@H](C(=O)N(C)C)CC(=O)N1C,B (a compound having 3 or more and less than 10 is denoted as B),A (a compound having 10 or more and less than 20 is denoted as A)
CCO[C@@H]1C[C@H]2C(=O)NC3(CCC3)C(=O)N(C)[C@@H](C3CCCC3)C(=O)N(C)C(C(C)C)CC(=O)N(C)[C@@H](CC)C(=O)N[C@@H]([C@@H](C)CC)C(=O)N(C)CC(=O)N(C)[C@H]3C/C=C\CCN(C3=O)[C@@H](Cc3ccc(C(F)(F)F)cc3)C(=O)N(C)CC(=O)N[C@@H](CCc3cc(F)c(C(F)(F)F)c(F)c3)C(=O)N2C1 (stereo partly shown),B (a compound having 3 or more and less than 10 is denoted as B),A (a compound having 10 or more and less than 20 is denoted as A)
CC[C@H](C)[C@@H]1NC(=O)[C@H](CC2CC2)N(C)C(=O)C[C@@H](C(=O)N2CCCC2)N(C)C(=O)[C@H](C2CCCC2)N(C)C(=O)C2(CCCC2)NC(=O)[C@@H]2C[C@@H](F)CN2C(=O)[C@H](CCc2cc(F)c(C(F)(F)F)c(F)c2)NC(=O)CN(C)C(=O)[C@H](Cc2ccc(C(F)(F)F)cc2)N2CC/C=C\C[C@@H](C2=O)N(C)C(=O)CN(C)C1=O,A (a compound having 10 or more and less than 20 is denoted as A),A (a compound having 10 or more and less than 20 is denoted as A)
